# Experiments:
# [1] = target: purified human C5 (human) (UniProt P01031); experiment: SEC-MALS in PBS; crovalimab mimetic 700 nM + C5 400 nM + eculizumab 700 nM; peak near 10.3 min; the complex also holds eculizumab [panel C]
# [2] = target: purified human C5 (human) (UniProt P01031); experiment: SEC-MALS in PBS; crovalimab mimetic 3500 nM + C5 + eculizumab; small peak near 9.8 min; the complex also holds eculizumab [panel D]
# [3] = target: purified human C5 (human) (UniProt P01031); experiment: SEC-MALS of eculizumab + C5 + crovalimab mimetic; hypothetical complex drawn with 3 antibodies and 2 C5; predicted size 907 kDa
# [4] = target: purified human C5 (human) (UniProt P01031); experiment: SEC-MALS of eculizumab + C5 + crovalimab mimetic; hypothetical complex drawn with 2 antibodies and 1 C5; predicted size 532 kDa
# [5] = target: purified human C5 (human) (UniProt P01031); experiment: SEC-MALS of eculizumab + C5 + crovalimab mimetic; hypothetical complex drawn with 4 antibodies and 3 C5; predicted size 1278 kDa
# [6] = target: purified human C5 (human) (UniProt P01031); experiment: SEC-MALS in PBS; crovalimab mimetic 3500 nM + C5 + eculizumab; shoulder near 9.3 min; the complex also holds eculizumab [panel D]
# [7] = target: purified human C5 (human) (UniProt P01031); experiment: SEC-MALS of eculizumab + C5 + crovalimab mimetic; hypothetical complex drawn with 5 antibodies and 4 C5; predicted size 1649 kDa
# [8] = target: purified human C5 (human) (UniProt P01031); experiment: SEC-MALS in PBS; crovalimab mimetic 3500 nM + C5 + eculizumab; peak near 11.1 min; the complex also holds eculizumab [panel D]
# [9] = target: purified human C5 (human) (UniProt P01031); experiment: SEC-MALS in PBS; crovalimab mimetic 700 nM + C5 400 nM + eculizumab 700 nM; given to the peak near 11.1 min by order of elution and by FIG. 5; the complex also holds eculizumab [panel C]
# [10] = target: purified human C5 (human) (UniProt P01031); experiment: SEC-MALS in PBS; crovalimab mimetic 700 nM + C5 400 nM + eculizumab 700 nM; peak near 9.7 min; the complex also holds eculizumab [panel C]
# [11] = target: purified human C5 (human) (UniProt P01031); experiment: SEC-MALS in PBS; crovalimab mimetic 700 nM + C5 400 nM + eculizumab 700 nM; the arrow points to the shoulder near 9.2 min; the complex also holds eculizumab [panel C]
# [12] = target: purified human C5 (human) (UniProt P01031); experiment: SEC-MALS in PBS; crovalimab mimetic 3500 nM + C5 + eculizumab; peak near 10.3 min; the complex also holds eculizumab [panel D]
substance,measurement,setting,value
mAb crovalimab mimetic (antibody),molar mass of complex peak (MALS),[1],921 kDa
same,molar mass of complex peak (MALS),[2],1230 kDa
same,Observed size (kDa),[3],921 kDa
same,Observed size (kDa),[4],540 kDa
same,Observed size (kDa),[5],1280 kDa
same,molar mass of complex peak (MALS),[6],1560 kDa
same,Observed size (kDa),[7],1570 kDa
same,molar mass of complex peak (MALS),[8],517 kDa
same,molar mass of complex peak (MALS),[9],540 kDa
same,molar mass of complex peak (MALS),[10],1280 kDa
same,molar mass of complex peak (MALS),[11],1570 kDa
same,molar mass of complex peak (MALS),[12],869 kDa
